Measured values from BindingDB's records for doi:10.1016/j.bmcl.2010.12.109 (Ono Pharmaceutical, 2011).
Counter-ions that a name gives are not always drawn.

Assay: Antagonist activity at human CCR5 expressed in HOS cells assessed as inhibition of cell fusion with HIV gp120 expressing HEK293 cells by LTR luciferase assay

## CCCCN1C(=O)[C@H](CC2CCCCC2)NC(=O)C12CCN(Cc1ccc(Oc3ccc(C(=O)O)cc3)cc1)CC2 [4-(4-{[(3S)-1-Butyl-3-(cyclohexylmethyl)-2,5-dioxo-1,4,9-triazaspiro[5.5]undec-9-yl]methyl}phenoxy)benzoic acid hydrochloride]
  IC50: 87.1 nM
